Measured values reported in ChEMBL document CHEMBL2413000, “Control of the intracellular levels of prostaglandin E₂ through inhibition of the 15-hydroxyprostaglandin dehydrogenase for wound healing” (Bioorg Med Chem, 2013).

Biological target: T1, 15-hydroxyprostaglandin dehydrogenase [NAD(+)] (Homo sapiens, UniProt P15428)
T1 sequence (P15428 whole entry): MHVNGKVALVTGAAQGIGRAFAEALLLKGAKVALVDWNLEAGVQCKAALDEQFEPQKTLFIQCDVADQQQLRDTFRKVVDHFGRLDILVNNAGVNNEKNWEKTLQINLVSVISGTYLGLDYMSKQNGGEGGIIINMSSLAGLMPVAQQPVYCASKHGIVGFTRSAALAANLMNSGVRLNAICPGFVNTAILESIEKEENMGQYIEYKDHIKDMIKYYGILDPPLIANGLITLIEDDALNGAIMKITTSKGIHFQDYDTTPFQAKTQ
Test: Inhibition of human GST-fused 15-PGDH expressed in Escherichia coli BL21 using PGE2 as substrate assessed as formation of NADH by fluorescence spectrophotometric analysis
In short: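 GST-tagged 15-PGDH from pGEX-2T in E. coli BL-21 LysS, IPTG-induced 12 h at 25 °C, glutathione-Sepharose purified. NADH formation read fluorometrically (excitation 340 nm, emission 468 nm) against an NADH standard curve. Triplicates per concentration; IC50 derived.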

IC50: 223 nM
Compound: O=C1N=C(O)S/C1=C\c1ccc(OCCN2CCS(=O)(=O)CC2)c(Cl)c1
